# Source: patent US7226746B1, “Method for screening for anti-amyloidogenic properties and method for treatment of neurodegenerative disease” (The Regents of the University of California, priority 1998, dated 2007)
# Entries after “also recorded” stand apart in the source; their conditions may differ.
# Assays:
# [1] = target: T1, NACP/α-synuclein (Homo sapiens, UniProt P37840); assay: His-tagged pull down in vitro binding assay; parameters: which encodes full length NACP/α-synuclein 140; 6xHis (cleaved yes); made in house; host or cells: E. coli; details: His-tagged β-synuclein 20 μM, 37° C., 8 hours, pH 6.9
# Protocol: Samples containing 0–20 μM of NACP/α-synuclein are incubated at 37° C. for 8 hours in combination with or without His-tagged β-synuclein (20 μM) in a total volume of 20 μl at pH 6.9. At the completion of the first incubation period, Ni^2+ beads, equilibrated with buffer A (20 mM Tris-HCl, pH 8.5, 100 mM KCl, 2 mM imidazole, 10 mM 2-mercaptoethanol and 10% glycerol), are added to the samples and left to sit for one hour at 4° C. Following recovery of the beads by pulse centrifugation, the beads are washed three times with buffer A, once with buffer B (20 mM Tris-HCl, pH 8.5, 100 mM KCl, 20 mM imidazole, 10 mM 2-mercaptoethanol and 10% glycerol), and once again with buffer A. The beads are then boiled in SDS sample buffer, and subjected to 15% SDS-PAGE. NACP/α-synuclein is then visualized by the immunoblotting analysis described below.
# NACP/α-synuclein-specific polyclonal antibody (anti-NACP101–124) is raised against the synthetic peptide ‘[…]’ (SEQ ID NO: 9) which is derived from residues 101–124 of NACP/α-synuclein. Immunoblotting analysis is performed as described above, the method of which is well known to those in the art. […]
# The interaction of NACP/α-synuclein with β-synuclein was assessed using a His-tagged pull down assay. […]
# [2] = target: T1, NACP/α-synuclein; assay: Co-incubation with NACP/α-synuclein at pH 6.9, 65° C.; aggregation assessed by immunoblotting; assay type: biochemical; parameters: which encodes full length NACP/α-synuclein 140; 6xHis (cleaved yes); made in house; host or cells: E. coli
# Protocol: NACP/α-synuclein-specific polyclonal antibody (anti-NACP101–124) is raised against the synthetic peptide ‘[…]’ (SEQ ID NO: 9) which is derived from residues 101–124 of NACP/α-synuclein. Immunoblotting analysis is performed as described above, the method of which is well known to those in the art. Briefly, each sample is resolved by SDS-PAGE (15%) and blotted onto nitrocellulose membrane (Schleicher & Schuell, Keene, N.H.) using a standard transfer apparatus. The membrane is then blocked with TBS containing 3% BSA, followed by an incubation with anti-NACP101–124 (1:1000) in TBS containing 1% BSA. […]
# The results from the His-tagged analysis led to the hypothesis that β-synuclein may modulate the aggregation of NACP/α-synuclein in vitro. […] The effect of β-synuclein on the aggregation of NACP/α-synuclein was assessed by immunoblotting analysis using anti-NAC101–124.
# According to the time-course results, NACP/α-synuclein was gradually aggregated. The 18 kD monomer bands were decreased while the soluble aggregates that represent oligomers in the separating gel and the insoluble aggregates detected in the stacking gel were increased.
# The dose-dependancy of β-synuclein in the inhibition of aggregation of NACP/α-synuclein was determined using proteins preparations at 20 hours incubation. […] The quantification of ratio of the aggregates versus the monomer was performed. […]
substance,measurement,setting,value
β-synuclein: human recombinant NACP/α-synuclein-related protein with a partially incomplete NAC domain; non-amyloidogenic,binding of NACP/α-synuclein to His-tagged β-synuclein (pull down on Ni2+ beads),[1],detected as a 18 kD monomer band
same,"effect on aggregation of NACP/α-synuclein, time course, equimolar co-incubation",[2]; 20 μM NACP/α-synuclein plus 20 μM added protein,inhibited the aggregation of NACP/α-synuclein
same,dose-dependency of inhibition of aggregation of NACP/α-synuclein (ratio of aggregates versus monomer),"[2]; 20 hours incubation, varied ratio to NACP/α-synuclein, n=3",significantly inhibited the aggregation; also recorded: dose-dependant inhibition
